The test system of the data set is EA 22. The following applies: ability to form active enzyme with EA in a 15 minute time frame relative to ED4.

For the substance “m-maleimide-benzoyl-L-Thyroxine-ED₄ conjugate [ED4T4]”, the “Specific Activity (u/mg) (% ED4-T4) Kinetic” value stood at 100%.

For the origin of these results see EP0419081A2, “Method for protein binding enzyme complementation assays” (MICROGENICS CORPORATION, priority 1989, dated 1991).
